Series [1] has as its target human erythrocyte AChE (hAChE) (Homo sapiens, UniProt P22303). Kind of series: Inhibition of acetylcholinesterase, spectrometric method of Ellman. It counts as biochemical. As to conditions: 5 min pre-incubation 25° C., n=3, Compound 2 value for n = 1. A general note: Ellman's reagent forms a yellow product with free thiols.
Series [2] can be described thus: Risk level score (sum of five risk factors). As to conditions: score 0 to 5, sum of factors 0 or 1 for hAChE IC50, eqBuChE IC50, QSAR neurotoxicity, QSAR reprotoxicity, cluster; 0 = lack of risk, 5 = very high risk.
The target in series [3] is BuChE from equine serum (eqBuChE) (Equus caballus, UniProt P81908). Kind of series: Inhibition of butyrylcholinesterase, spectrometric method of Ellman. The class given is biochemical. As to conditions: 5 min pre-incubation 25° C., n=3, Compound 2 value for n = 1.

Amino acid sequences for entries named in this document (tags omitted). A change or cut given only in a name is not applied to a line headed by its entry.
UniProt P22303: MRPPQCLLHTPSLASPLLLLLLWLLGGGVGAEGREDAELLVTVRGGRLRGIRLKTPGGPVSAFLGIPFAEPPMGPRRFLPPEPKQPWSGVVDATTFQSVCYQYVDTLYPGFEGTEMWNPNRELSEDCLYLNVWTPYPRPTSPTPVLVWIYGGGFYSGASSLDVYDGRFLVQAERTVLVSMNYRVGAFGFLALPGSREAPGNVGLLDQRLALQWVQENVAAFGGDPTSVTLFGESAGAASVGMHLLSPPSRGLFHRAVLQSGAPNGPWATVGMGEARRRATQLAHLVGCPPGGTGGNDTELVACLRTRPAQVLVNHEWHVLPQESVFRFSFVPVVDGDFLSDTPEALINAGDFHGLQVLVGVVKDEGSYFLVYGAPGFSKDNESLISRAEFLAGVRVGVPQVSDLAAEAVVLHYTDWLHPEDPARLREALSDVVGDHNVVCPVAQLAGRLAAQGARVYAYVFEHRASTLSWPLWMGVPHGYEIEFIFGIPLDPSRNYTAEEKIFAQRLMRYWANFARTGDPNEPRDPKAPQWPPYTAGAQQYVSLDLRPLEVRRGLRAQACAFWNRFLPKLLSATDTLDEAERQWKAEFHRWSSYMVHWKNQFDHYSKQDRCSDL
UniProt P81908, whole entry, looked up: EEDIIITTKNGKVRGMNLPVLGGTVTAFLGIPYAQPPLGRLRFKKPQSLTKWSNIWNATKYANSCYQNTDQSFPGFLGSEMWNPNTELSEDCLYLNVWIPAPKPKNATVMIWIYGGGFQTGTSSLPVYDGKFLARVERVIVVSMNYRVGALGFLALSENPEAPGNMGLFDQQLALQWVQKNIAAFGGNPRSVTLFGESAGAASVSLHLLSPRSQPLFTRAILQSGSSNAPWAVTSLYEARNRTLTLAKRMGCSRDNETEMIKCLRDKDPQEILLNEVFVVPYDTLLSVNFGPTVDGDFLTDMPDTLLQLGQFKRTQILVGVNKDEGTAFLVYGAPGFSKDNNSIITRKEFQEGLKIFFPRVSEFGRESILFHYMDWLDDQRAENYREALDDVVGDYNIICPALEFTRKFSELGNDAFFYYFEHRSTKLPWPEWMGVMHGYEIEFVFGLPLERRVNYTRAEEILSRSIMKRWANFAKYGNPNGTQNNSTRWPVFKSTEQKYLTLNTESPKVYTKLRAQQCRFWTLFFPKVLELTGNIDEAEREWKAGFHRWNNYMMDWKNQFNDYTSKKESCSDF

In brackets after ≈: the same amount, converted by molar mass.

Take `CCCCOP(=O)(OCCCC)OCCCC`: the “IC50 hAChE” value in series [1] was found to be 7.9 µg/mL (≈ 29.7 µM). The same molecule yielded a Risk level in series [2] of 3. The “IC50 eqBuChE” value in series [3] was found to be 21 µg/mL (≈ 78.9 µM).
